Laboratory results as given in PubChem BioAssay AID651725 (National Center for Advancing Translational Sciences (NCATS), 2012).
The entries are a selection whose mix differs from that of the whole data set. Active and inactive are the calls of the source. No stated cut-off is given here; in the data, active means activity change below about -65%; inconclusive means mostly about -30% to -63%; inactive means weaker than that.

Protein sequences, listed by entry. Tags and fused reporters are not part of them.
UniProt Q15475, whole entry: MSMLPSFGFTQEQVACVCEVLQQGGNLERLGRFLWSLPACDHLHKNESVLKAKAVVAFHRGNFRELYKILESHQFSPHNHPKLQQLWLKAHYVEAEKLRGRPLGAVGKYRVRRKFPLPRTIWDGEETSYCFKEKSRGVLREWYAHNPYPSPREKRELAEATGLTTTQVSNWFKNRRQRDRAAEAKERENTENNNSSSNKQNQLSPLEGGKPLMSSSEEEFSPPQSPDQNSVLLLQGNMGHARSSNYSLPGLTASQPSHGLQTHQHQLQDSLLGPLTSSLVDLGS

What follows are compounds tested against Homeobox protein SIX1 (Homo sapiens) + Protein phosphatase EYA2 (Homo sapiens) (UniProt Q15475+O00167) (assay: qHTS Assay for Inhibitors of the Six1/Eya2 Interaction). Conditions: AlphaScreen GST-Six1/His-Eya2 binding, biochemical; hits give low values.
Text: Its expression is low or undetectable in normal adult breast tissue but the gene is over-expressed in 50% of primary breast tumors and 90% of metastatic lesions. […] Similar to Six1, Eya2 is also not expressed in most normal adult tissues, but is reexpressed in cancers. The Six1-Eya interaction is essential for proliferation during embryonic development, and both Six1 and Eya2 have been independently implicated in the same types of cancer. Because Six1 and Eya2 are embryonic genes with little expression in adult tissues, inhibitors of their expression/activity are likely to have limited side effects. Our goal is to identify inhibitors of the Six1/Eya interaction for potential cancer therapy. To this end, we have developed a homogenous AlphaScreen assay targeting the Six1/Eya interaction. We performed a large scale HTS of the Molecular Libraries Small Molecule Repository (MLSMR) to identify inhibitors of the Six1/Eya interaction as potential anti-cancer therapeutics. Compounds identified can also be used as chemical probes to better understand the biological functions of Six1 and Eya. NIH Chemical Genomics Center [NCGC] NIH Molecular Libraries Probe Centers Network [MLPCN] MLPCN Grant: DA033147 Assay Submitter (PI): Rui Zhao, University of Colorado Denver
The first step of the 5 uL AlphaScreen assay is to dispense assay buffer (50 mM Tris, pH 8.0, 300 mM NaCl, 0.05% BSA, 0.02% Tween 20, 1 mM TCEP) into a Greiner 1536 white solid bottom microtiter plate (789175-F). Five microliters is added to Column 1, 4 uL is added to Column 2 and 3 uL is added to Columns 3 through 48. A 5X protein solution (250 nM GST-Six1 protein + 500 nM His-tagged Eya2 protein) is mixed and 1 uL is dispensed to Columns 3-48. Using a 1536 pintool, 23 nL of compound is transferred to the assay plate. A solution of 5X AlphaScreen beads is mixed (50 ug/mL Glutathione linked donor beads + Nickel chelated acceptor beads) and 1 uL is dispensed to Columns 2-48. The assay plate is incubated for one hour, with a lid, at 37 deg C in the dark. The plate is read using a Perkin Elmer Envision using an AlphaScreen protocol.
On the % scale 0 is the no-effect control and ±100 the full control effect.

Row | SMILES | activity change
1 | Cc1ccccc1NC1(C#N)CCN(Cc2ccccc2)CC1 | inactive: -4.03%
2 | COc1ccc(C(c2nnnn2C2CCCCC2)N2CCC(n3c(=O)[nH]c4ccccc43)CC2)cc1 (stereo not given) | inactive: 0.2%
3 | CCN1CCC(Nc2cccc(F)c2)CC1 | inactive: 2.26%
4 | CC(C)(C)n1nnnc1C(c1ccnc2ccccc12)N1CCC(n2c(=O)[nH]c3ccccc32)CC1 (stereo not given) | inactive: 2.53%
5 | O=C(NCC1(N2CCCCC2)CCCCC1)c1ccco1 | inactive: -2.3%
6 | CN(C)c1ccc(C(=O)NCC2(N3CCCCC3)CCCCC2)cc1 | inactive: 0.891%
7 | Cn1c(=O)[nH]cc(N(CCCl)CCCl)c1=O | inactive: 3.83%
8 | COc1cc(OC)cc(C(=O)NCC2(N3CCCCC3)CCCCC2)c1 | inactive: -9.84%
9 | O=c1[nH]c2ccccc2n1C1CCN(C(c2ccnc3ccccc23)c2nnnn2C2CCCCC2)CC1 (stereo not given) | inactive: -15.7%
10 | COc1cccc(C(c2nnnn2C2CCCCC2)N2CCC(n3c(=O)[nH]c4ccccc43)CC2)c1OC (stereo not given) | inactive: -15.6%
11 | CC(=O)N(c1ccccc1)C1CCNCC1 | inactive: -0.935%
12 | CCC(c1nnnn1C1CCCCC1)N1CCC(n2c(=O)[nH]c3ccccc32)CC1 (stereo not given) | inactive: 11.8%
13 | Cc1ccc(NC2(C#N)CCN(Cc3ccccc3)CC2)cc1 | inactive: 12.3%
14 | Cc1ccc(C(=O)NCC2(N3CCCCC3)CCCCC2)o1 | inactive: 1.44%
15 | Fc1ccccc1NC1CCN(Cc2ccccc2)CC1 | inactive: 0%
16 | CCC(CO)(C(=O)OC1CN2CCC1CC2)c1ccccc1 (stereo not given) | inactive: 7.78%
17 | COc1cccc(C(=O)N(c2cc(C)cc(C)c2)C2CCN(C(=O)OC(C)(C)C)CC2)c1 | inactive: -6.94%
18 | COc1cccc(C(c2nnnn2C2CCCC2)N2CCC(n3c(=O)[nH]c4ccccc43)CC2)c1OC (stereo not given) | inactive: -13%
19 | COc1cc(OC)cc(C(=O)NCC2(N3CCOCC3)CCCCC2)c1 | inactive: -0.757%
20 | CN1CCC(Nc2ccc(Cl)cc2)CC1 | inactive: 2.94%
21 | CCOc1ncccc1C(=O)NCC1(N2CCOCC2)CCCCC1 | inactive: -4.06%
22 | CN1CCC(Nc2ccc(F)c(Cl)c2)CC1 | inactive: 0%
23 | O=c1[nH]c2ccccc2n1C1CCN(C(c2cc3ccccc3o2)c2nnnn2C2CCCC2)CC1 (stereo not given) | inactive: -20.5%

Row | SMILES | activity change
24 | CCCOc1ccc(C(=O)NCC2(N(C)C)CCCCC2)cc1 | inactive: 0%
25 | CC(C)(C)OC(=O)N1CCC(Nc2ccccc2)CC1 | inactive: -1.5%
26 | NN(c1ccccc1)C1CCN(CCc2ccccc2)CC1 | inactive: -18.9%
27 | O=C(O)C1(Nc2ccccc2)CCN(Cc2ccccc2)CC1 | inactive: 0.174%
28 | N/C(=N\O)c1c(N)no[n+]1[O-] | inactive: -3.69%
29 | CCOC(=O)N1CCC(Nc2ccc(C)cc2)CC1 | inactive: -9.18%
30 | COc1cccc(C(c2nnnn2C(C)(C)C)N2CCC(n3c(=O)[nH]c4ccccc43)CC2)c1OC (stereo not given) | inactive: -2.29%
31 | CCCCn1nnnc1C(c1cccc(OC)c1OC)N1CCC(n2c(=O)[nH]c3ccccc32)CC1 (stereo not given) | inactive: -15.6%
32 | CCc1cc(C(=O)NCC2(N3CCCCC3)CCCCC2)sc1C | inactive: -2.66%
33 | O=C(OC1CN2CCC1CC2)C1c2ccccc2C=Cc2ccccc21 (stereo not given) | inactive: -4.58%
34 | O=C(O)c1cccc(Nc2c([N+](=O)[O-])cc([N+](=O)[O-])cc2[N+](=O)[O-])c1 | inactive: 0.558%
35 | O=c1[nH]c2ccccc2n1C1CCN(C(c2cccs2)c2nnnn2C2CCCC2)CC1 (stereo not given) | inactive: -9.88%
36 | O=C(NCC1(N2CCOCC2)CCCCC1)c1cc(Br)ccc1Cl | inactive: 15.7%
37 | CCCCn1nnnc1C(c1ccccc1)N1CCC(n2c(=O)[nH]c3ccccc32)CC1 (stereo not given) | inactive: -8.65%
38 | COc1cc(C(=O)NCC2(N3CCOCC3)CCCCC2)cc(OC)c1C | inactive: -2.67%
39 | COc1ccc(C(=O)NCC2(N3CCOCC3)CCCCC2)cc1OC | inactive: 6.61%
40 | O=c1[nH]c2ccccc2n1C1CCN(C(c2ccnc3ccccc23)c2nnnn2C2CCCC2)CC1 (stereo not given) | inactive: -10.2%
41 | O=c1[nH]c2ccccc2n1C1CCN(C(c2cccs2)c2nnnn2C2CCCCC2)CC1 (stereo not given) | inactive: -2.88%
42 | c1ccc(CN2CCC(Nc3ccccc3)CC2)cc1 | inactive: -3.82%
43 | O=c1[nH]c2ccccc2n1C1CCN(C(c2ccccc2)c2nnnn2C2CCCC2)CC1 (stereo not given) | inactive: -3.79%
44 | CCCN1CCC(Nc2cc(OC)cc(OC)c2)CC1 | inactive: -2.64%
45 | Cc1cc(N(CCCl)CCCl)ccc1C=O | inactive: 0.444%
